Literature values in patent US6498171B2, “Hydroxyomeprazole compositions” (Sepracor Inc., priority 1998, dated 2002).

The chains behind the UniProt entries cited, without tags or fusion partners.
UniProt P33261, whole entry: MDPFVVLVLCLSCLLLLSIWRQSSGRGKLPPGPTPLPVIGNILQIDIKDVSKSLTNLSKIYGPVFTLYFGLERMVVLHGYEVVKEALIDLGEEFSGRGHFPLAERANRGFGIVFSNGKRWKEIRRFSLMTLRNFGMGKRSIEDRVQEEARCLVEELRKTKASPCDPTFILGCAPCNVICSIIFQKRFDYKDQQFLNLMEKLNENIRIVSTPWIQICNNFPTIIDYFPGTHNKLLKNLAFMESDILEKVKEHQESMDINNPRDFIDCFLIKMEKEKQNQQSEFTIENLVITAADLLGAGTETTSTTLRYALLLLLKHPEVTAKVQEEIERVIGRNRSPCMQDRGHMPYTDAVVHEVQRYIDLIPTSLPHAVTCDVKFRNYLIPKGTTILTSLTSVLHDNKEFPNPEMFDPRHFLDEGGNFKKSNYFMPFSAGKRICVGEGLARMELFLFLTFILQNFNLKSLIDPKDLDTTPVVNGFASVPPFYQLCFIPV

Molecular target: CYP 2C19 (Homo sapiens, UniProt P33261)

COc1ccc2nc([S+]([O-])Cc3ncc(C)c(OC)c3C)[nH]c2c1 (single isomer, unassigned; (+)) [(+)-omeprazole]
hydroxylation by CYP 2C19: rapidly hydroxylated

COc1ccc2[nH]c([S+]([O-])Cc3ncc(C)c(OC)c3C)nc2c1 (stereo not drawn) [(−)]
hydroxylation by CYP 2C19: is not
